What was measured:
Type in all cases: in vivo
CB1R [1] = target: T1, CB1R (Mus musculus, UniProt P47746); experiment: CP 55,940-induced hypothermia in mice
T1 construct: from tissue; host or cells: living C57BL/6J mice (whole animal; brain and peripheral tissues)
Method: (§1) Drugs were applied in a volume of 1 μL over the course of 2 min via 33 g internal injector (P1 Technologies, Roanoke, VA, USA) connected with the 2 µL precision glass Hamilton syringe (USA) by a PE-20 tubing (Fisher Scientific, Hampton, NH, USA). The infusion rate and volume were controlled through the use of the syringe pump (model PHD 22/2000, Harvard Apparatus, Cambridge, MA, USA). Following 2 min infusion, injectors were left in place for additional 3 min to allow a passive diffusion of drugs into the tissue.
(§2) Catalepsy was assessed using the bar test described with modifications. Mice were removed from home cages and their forepaws were placed on a horizontal stainless-steel rod, 0.5 cm in diameter, positioned 3.5 cm above the bench surface. […] The arbitrary cutoff time for cataleptic mice was 60 s. Hypothermia was then evaluated by measuring core body temperature with a rectal probe (Ellab Inc., Denver, CO, USA).
(§3) To determine a working range of CP 55,940 doses that induce catalepsy and hypothermia through CB1R, a dose–response curve for CP 55,940 was constructed first. Pharmacologically naïve Cnr1^−/− and wild-type littermates were injected with increasing doses of CP 55,940 (0.1, 0.3, 1, and 3 mg/kg; i.p.) at 30 min intervals. Hypothermia and catalepsy tests were performed every 30 min before ordering the next dose of CP 55,940.

By UniProt entry, the sequences of proteins in these tests, tags left out.
UniProt P47746, whole entry: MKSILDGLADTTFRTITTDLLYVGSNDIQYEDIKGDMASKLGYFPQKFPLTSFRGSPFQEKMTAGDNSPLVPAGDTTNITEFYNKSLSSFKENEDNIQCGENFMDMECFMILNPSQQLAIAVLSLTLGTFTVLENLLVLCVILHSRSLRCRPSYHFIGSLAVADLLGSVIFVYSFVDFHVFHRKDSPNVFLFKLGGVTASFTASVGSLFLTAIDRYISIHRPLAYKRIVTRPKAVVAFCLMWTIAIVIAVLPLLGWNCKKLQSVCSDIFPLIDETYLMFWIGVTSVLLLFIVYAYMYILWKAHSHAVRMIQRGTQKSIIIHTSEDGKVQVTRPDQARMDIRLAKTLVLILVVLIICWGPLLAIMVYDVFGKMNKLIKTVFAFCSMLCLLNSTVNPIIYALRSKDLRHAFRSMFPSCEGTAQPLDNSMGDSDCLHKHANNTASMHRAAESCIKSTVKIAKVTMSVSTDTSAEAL

CB1R [2] = target: T1, CB1R; experiment: Drinking-in-the-dark voluntary ethanol intake (20% ethanol, 4 h)
Method: as §1
The procedure was performed as described, with modifications. Mice were individually housed and acclimated to the room for 5–7 days before testing and randomly assigned to treatment groups. Starting 3 h into the dark cycle, water bottles were replaced with 20% ethanol in 25 × 100 mm glass tubes fitted with metal sippers, Access to the ethanol solution was limited to 4 h every day. […] Immediately after the drinking session, mice were deeply anesthetized with isoflurane. Blood was collected by traumatic avulsion of the orbital globe and kept for 10 min at room temperature in Eppendorf tubes followed by centrifugation at 3000× g for 10 min at 4 °C. Serum was collected and kept frozen in sealed vials at −80 °C until analysis.

CB1R [3] = target: T1, CB1R; experiment: CP 55,940-induced catalepsy (bar test) in mice
Method: as §1, §2, §3

[4] = C57BL/6J mice, 2 µg i.c.v. 30 min before CP 55,940 0.1 or 0.3 mg/kg i.p., read 30 min later

Cc1c(C(=O)NN2CCCCC2)nn(-c2ccc(Cl)cc2Cl)c1-c1ccc(Cl)cc1 [rimonabant]
blockade of hypothermic effect of CP55,940 (CB1R [1]; [4]): effectively blocked | baseline body temperature before CP 55,940 injection (CB1R [1]; rimonabant 2 µg i.c.v.-infused group, n = 10, mean ± s.e.m.): 37.5 ± 0.1 °C | reduction of alcohol drinking after oral gavage in CB1R KO mice (CB1R [2]; CB1R KO (Cnr−/−) mice, rimonabant 10 mg/kg oral gavage): did not occur in CB1R KO mice | alcohol drinking after i.c.v. infusion (CB1R [2]; i.c.v. on day 4, one hour before dark period (rimonabant 2 µg; JD5037 1 µg)): did not alter alcohol drinking | alcohol drinking after oral gavage (CB1R [2]; wild-type/C57BL/6J mice, oral gavage day 4 (rimonabant 10 mg/kg; JD5037 3 mg/kg; S-MRI-1867 3, 10 mg/kg; R-MRI-1867 10 mg/kg)): markedly reduced | blockade of cataleptic effect of CP55,940 (CB1R [3]; [4]): effectively blocked | time mice held the bar before CP 55,940 injection (CB1R [3]; rimonabant 2 µg i.c.v.-infused group, mean ± s.e.m.): 0.1 ± 0.1 s

From paper PMC8399901, “Effects of a Peripherally Restricted Hybrid Inhibitor of CB1 Receptors and iNOS on Alcohol Drinking Behavior and Alcohol-Induced Endotoxemia” (Molecules, 2021)
